{"source": "patent US6071747A", "about": "“Immortalized cell lines from human adipose tissue, process for preparing same and applications thereof” (Centre National de la Recherche Scientifique-CNRS, priority 1995, dated 2000)", "system": "β-adrenergic receptors coupled with adenylyl cyclase in PAZ-6 cells", "conditions": "15 min", "note": "Where two headings read alike, the source gives them in different places."}
{"smiles": "CC(C)NCC(O)c1ccc(O)c(O)c1", "note": "(stereo not shown) [isoproterenol, isoprenaline]", "values": [{"measurement": "Multiplication factor/basal level (cAMP)", "setting": "PAZ-6 differentiated", "value": 15}, {"measurement": "Multiplication factor/basal level (cAMP)", "setting": "PAZ-6 not differentiated", "value": 21}, {"measurement": "increase in the cAMP level/basal level", "setting": "differentiated PAZ-6, isoproterenol 10 μM", "value": 15, "unit": "fold"}, {"measurement": "increase in the cAMP levels", "setting": "undifferentiated PAZ-6, isoproterenol 10 μM", "value": 21, "unit": "fold"}]}
